According to patent publication US11033631B2, “Methods of treating CYP2D6 alternative metabolizers” (Nektar Therapeutics, priority 2008, dated 2021):
Where two headings read alike, the source gives them in different places.

Chains of the proteins cited; added tags and fusions are not shown.
UniProt P08684, whole entry: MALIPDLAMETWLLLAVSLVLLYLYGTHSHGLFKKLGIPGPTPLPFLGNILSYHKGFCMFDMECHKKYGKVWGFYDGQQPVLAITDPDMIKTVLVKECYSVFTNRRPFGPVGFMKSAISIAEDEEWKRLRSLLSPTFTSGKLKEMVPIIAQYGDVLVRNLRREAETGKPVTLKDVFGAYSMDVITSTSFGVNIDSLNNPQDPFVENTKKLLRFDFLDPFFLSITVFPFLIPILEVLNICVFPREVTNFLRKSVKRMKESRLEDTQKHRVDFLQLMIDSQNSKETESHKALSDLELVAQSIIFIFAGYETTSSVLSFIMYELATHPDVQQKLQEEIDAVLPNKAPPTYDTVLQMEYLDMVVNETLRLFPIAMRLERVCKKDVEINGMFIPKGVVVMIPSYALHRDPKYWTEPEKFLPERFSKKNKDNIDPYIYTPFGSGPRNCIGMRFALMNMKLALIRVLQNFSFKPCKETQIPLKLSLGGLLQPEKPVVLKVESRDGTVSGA
UniProt P10635, whole entry: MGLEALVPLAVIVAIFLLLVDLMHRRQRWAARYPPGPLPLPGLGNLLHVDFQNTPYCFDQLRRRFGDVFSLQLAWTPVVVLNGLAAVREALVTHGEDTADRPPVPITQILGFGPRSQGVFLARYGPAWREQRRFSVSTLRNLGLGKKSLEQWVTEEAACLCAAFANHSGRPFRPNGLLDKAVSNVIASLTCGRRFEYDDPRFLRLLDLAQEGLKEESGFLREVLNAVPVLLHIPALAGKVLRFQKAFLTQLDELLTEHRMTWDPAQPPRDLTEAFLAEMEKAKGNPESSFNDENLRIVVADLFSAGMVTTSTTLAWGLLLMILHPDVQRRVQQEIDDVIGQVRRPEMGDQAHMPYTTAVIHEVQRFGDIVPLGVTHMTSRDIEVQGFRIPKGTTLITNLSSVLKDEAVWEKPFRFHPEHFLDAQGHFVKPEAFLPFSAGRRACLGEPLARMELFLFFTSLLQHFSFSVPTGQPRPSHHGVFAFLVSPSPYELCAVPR

Experiments:
CYP3A4 [1] = target: T1, CYP3A4 (Homo sapiens, UniProt P08684); settings: microsomes
CYP3A4 [2] = target: T1, CYP3A4; settings: microsomes; remark: listed apart in the source
CYP2D6 = CYP2D6 (Homo sapiens, UniProt P10635); settings: read-out: CYP2D6 Inhibition of dextromethorphan O-demethylation IC50; human liver microsomes 0.1 mg/mL, test compound 0.1-25 μM, 5 minutes

mPEG3-N-debrisoquine
IC50 (CYP3A4 [1]): > 25 µM
IC50 (CYP3A4 [2]): > 25 µM
IC50 (CYP2D6): 11.3 µM

mPEG3-O-propranolol
IC50 (CYP3A4 [1]): 8.1 µM
IC50 (CYP3A4 [2]): > 25 µM
IC50 (CYP2D6): 14.7 µM

mPEG3-desipramine
IC50 (CYP3A4 [1]): 14 µM
IC50 (CYP3A4 [2]): > 25 µM
IC50 (CYP2D6): 2.47 µM

mPEG5-O-propranolol
IC50 (CYP3A4 [1]): 7.6 µM
IC50 (CYP3A4 [2]): > 25 µM
IC50 (CYP2D6): > 25 µM

mPEG5-desipramine
IC50 (CYP3A4 [1]): 13.3 µM
IC50 (CYP3A4 [2]): > 25 µM
IC50 (CYP2D6): 15.4 µM

mPEG6-N-debrisoquine
IC50 (CYP3A4 [1]): > 25 µM
IC50 (CYP3A4 [2]): > 25 µM
IC50 (CYP2D6): > 25 µM

mPEG7-O-propranolol
IC50 (CYP3A4 [1]): 10.7 µM
IC50 (CYP3A4 [2]): > 25 µM
IC50 (CYP2D6): > 25 µM

mPEG8-N-debrisoquine
IC50 (CYP3A4 [1]): > 25 µM
IC50 (CYP3A4 [2]): > 25 µM
IC50 (CYP2D6): > 25 µM

mPEG8-desipramine
IC50 (CYP3A4 [1]): 13.5 µM
IC50 (CYP3A4 [2]): > 25 µM
IC50 (CYP2D6): > 25 µM
